Several values for one entry are separate records, joined by “and”; a condition that tells them apart may be missing. Equal values may be shown once. Only a part is listed here, and it is no random draw. Inconclusive results are not listed. A structure can be active in one record and inactive in another. Activity calls are given as the source filed them. Unless noted, calls come from the whole dose curve; as a rule, active = well fitted curve in the direction sought with a large enough effect in the repeat runs; inconclusive = weak or mixed curves; inactive = no such curve, though single readings can be large; an effect the other way counts as inactive or inconclusive.
How the values were obtained:
[1] = qHTS assay to identify small molecule antagonists of the vitamin D receptor (VDR) signaling pathway - cell viability counter screen (AID 743225); conditions: VDR-bla HEK293T viability, CellTiter-Glo luminescence, 16 h; note: % is set by controls: 0 for no effect and ±100 for the full control effect; nearly all actives have a fitted effect of over 50% in size
Method in brief: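 Viability counter screen run in the same wells as the beta-lactamase reporter assay: HEK 293T VDR-UAS-bla cells, 16 h compound exposure at 37C with 3 nM (final) 1-alpha,25-dihydroxyvitamin D3. CellTiter-Glo luminescence, 30 min, room temperature.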

The chains behind the UniProt entries cited, without tags or fusion partners.
UniProt P19793, whole entry: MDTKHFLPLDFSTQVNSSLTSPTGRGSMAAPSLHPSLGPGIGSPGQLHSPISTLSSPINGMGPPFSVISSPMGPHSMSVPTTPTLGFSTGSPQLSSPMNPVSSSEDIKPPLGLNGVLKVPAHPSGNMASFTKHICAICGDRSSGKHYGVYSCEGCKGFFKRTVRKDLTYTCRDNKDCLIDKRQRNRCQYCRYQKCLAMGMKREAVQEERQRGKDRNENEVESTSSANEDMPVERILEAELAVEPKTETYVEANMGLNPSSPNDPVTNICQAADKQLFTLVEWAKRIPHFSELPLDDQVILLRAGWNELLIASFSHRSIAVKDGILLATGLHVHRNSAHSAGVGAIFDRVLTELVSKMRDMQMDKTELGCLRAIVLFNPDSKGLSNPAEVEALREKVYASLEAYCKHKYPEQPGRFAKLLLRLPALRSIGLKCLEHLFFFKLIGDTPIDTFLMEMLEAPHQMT
UniProt P08659, whole entry: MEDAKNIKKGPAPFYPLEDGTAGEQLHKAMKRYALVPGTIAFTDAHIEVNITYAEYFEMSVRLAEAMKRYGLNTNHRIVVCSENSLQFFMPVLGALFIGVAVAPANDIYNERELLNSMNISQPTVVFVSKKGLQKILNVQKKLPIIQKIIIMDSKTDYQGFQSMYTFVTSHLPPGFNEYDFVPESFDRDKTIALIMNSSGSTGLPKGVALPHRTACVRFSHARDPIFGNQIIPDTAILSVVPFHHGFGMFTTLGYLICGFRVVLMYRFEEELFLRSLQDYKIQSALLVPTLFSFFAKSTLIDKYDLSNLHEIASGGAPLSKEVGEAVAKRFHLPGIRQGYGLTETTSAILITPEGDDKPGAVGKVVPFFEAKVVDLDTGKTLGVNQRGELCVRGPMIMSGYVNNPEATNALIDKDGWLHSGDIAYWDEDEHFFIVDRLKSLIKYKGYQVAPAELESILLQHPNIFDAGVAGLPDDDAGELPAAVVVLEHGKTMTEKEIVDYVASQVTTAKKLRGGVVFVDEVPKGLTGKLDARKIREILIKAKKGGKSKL
UniProt Q14994, whole entry: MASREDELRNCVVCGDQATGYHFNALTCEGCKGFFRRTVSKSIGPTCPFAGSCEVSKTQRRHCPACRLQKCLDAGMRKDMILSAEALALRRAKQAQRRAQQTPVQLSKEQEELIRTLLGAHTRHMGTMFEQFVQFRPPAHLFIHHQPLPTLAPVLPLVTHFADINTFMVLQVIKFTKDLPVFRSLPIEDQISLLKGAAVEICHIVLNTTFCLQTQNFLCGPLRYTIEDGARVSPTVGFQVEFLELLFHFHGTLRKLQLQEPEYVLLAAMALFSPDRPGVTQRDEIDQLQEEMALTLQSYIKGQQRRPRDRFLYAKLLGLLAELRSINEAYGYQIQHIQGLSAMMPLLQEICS

[2] = qHTS assay to identify small molecule agonists of the NFkB signaling pathway - cell viability counter screen (AID 1159515; calls by dose curve; note: % is set by controls: 0 for no effect and ±100 for the full control effect; nearly all actives have a fitted effect of over 55% in size); conditions: NFkB-bla ME-180 viability, CellTiter-Glo luminescence, 5 h
Method in brief: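 5 hr compound treatment of NFkB-bla ME-180 cells (2,000/well, seeded overnight beforehand), followed by reporter substrate for 1.5 hr. CellTiter-Glo added afterward; luminescence after 30 min RT.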

[3] = qHTS assay to identify small molecule agonists of the endoplasmic reticulum stress response signaling pathway (AID 1159516; active = well fitted activation curve with a large enough effect in the signal ratio in the repeat runs, not every such curve was filed as active; the % refers to the signal ratio; note: % is set by controls: 0 for no effect and ±100 for the full control effect); conditions: ESRE-bla HeLa, ER stress beta-lactamase reporter, 5 h
Method in brief: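 Reporter HeLa cells (ESRE-beta-lactamase) underwent 5 hr compound incubation at 37 C and 5% CO2 in quantitative HTS format. Detection followed 2 hr of FRET substrate loading at room temperature.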

[4] = qHTS assay to identify small molecule agonists of the endoplasmic reticulum stress response signaling pathway - cell viability counter screen (AID 1159517; calls by dose curve;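 note: HeLa cells carrying an ER stress response element beta-lactamase reporter; % is set by controls: 0 for no effect and ±100 for the full control effect; nearly all actives have a fitted effect of over 50% in size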); conditions: ESRE-bla HeLa viability, CellTiter-Glo luminescence, 5 h
Method in brief: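 Luminescence readout: CellTiter-Glo, 30 min RT, same wells as the ESRE-bla reporter read. HeLa ESRE-bla, 1,500 cells/well, o/n 37 C; cpd 5 hr 37 C/5% CO2.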

[5] = molecular target: Nuclear receptor ROR-gamma (Homo sapiens) (UniProt P51449); test: qHTS assay to identify small molecule antagonists of the retinoid-related orphan receptor gamma (ROR-gamma) signaling pathway (AID 1159521;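 note: CHO cells with doxycycline inducible ROR-gamma driving an RORE luciferase reporter; top concentration of the series differs between compounds; % is set by controls: 0 for no effect and ±100 for the full control effect; nearly all actives have a fitted effect of over 50% in size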); conditions: Tet-on RORgamma CHO cells, RORE-luciferase, 16 h; at 92.4 µM (top of the series)
[6] = qHTS assay to identify small molecule agonists of the AP-1 signaling pathway - cell viability counter screen (AID 1159525; calls by dose curve; note: nearly all actives have a fitted effect of over 55% in size); conditions: ME-180 AP-1-bla cells viability, ATP luminescence, 5 h; at 76.8 µM (top of the series) unless noted
Method in brief: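 ME-180 AP-1-bla, 2500 cells/well, Opti-MEM + 0.5% dialyzed FBS; overnight 37 °C; cpd 15-pt titration, 5 h 37 °C; CellTiter-Glo 30 min RT; luminescence read; normalised to TOAB and DMSO controls.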

[7] = qHTS assay to identify small molecule agonists of the AP-1 signaling pathway (AID 1159526; calls by dose curve; note: % is set by controls: 0 for no effect and ±100 for the full control effect); conditions: ME-180 (cervical carcinoma) AP-1-bla reporter, beta-lactamase FRET ratio, 5 h
[8] = molecular target: Retinoic acid receptor RXR-alpha (Homo sapiens) (UniProt P19793); test: qHTS assay to identify small molecule agonists of the RXR signaling pathway (AID 1159527; calls by dose curve; note: nearly all actives have a fitted effect of over 35% in size; note: potency is the fitted concentration of half-maximal effect; for activation: % is set by controls: 0 for no effect and ±100 for the full control effect); conditions: HEK293T RXRa-UAS-bla, beta-lactamase ratio, 16 h; series mostly up to 76.8 µM
Method in brief: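 Agonist mode; 9-cis retinoic acid positive control. HEK 293T UAS-bla reporter cells, 2% charcoal-stripped FBS, 16 hr compound exposure at 37 C/5% CO2. LiveBLAzer B/G FRET substrate 2 hr RT; ex 405, em 460/530 nm.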

[9] = qHTS assay to identify small molecule antagonists of the retinoic acid receptor (RAR) signaling pathway (AID 1159552; note: % is set by controls: 0 for no effect and ±100 for the full control effect; nearly all actives have a fitted effect of over 50% in size); conditions: C3RL4 RARE luciferase reporter, retinol-stimulated, 6 h
Method in brief: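 Luminescence from a RARE luciferase reporter in C3RL4 cells served as read-out. Cells received compounds together with 1 uM final retinol and incubated 6 hr at 37 C before detection reagent was added for 30 min at room temperature.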

[10] = qHTS assay to identify small molecule agonists of the retinoic acid receptor (RAR) signaling pathway (AID 1159553); conditions: C3RL4 RARE luciferase reporter, agonist, 6 h; note: % is set by controls: 0 for no effect and ±100 for the full control effect
Method in brief: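 Activation of retinol signaling was monitored via a RARE luciferase reporter in C3RL4 cells. After 6 hr compound treatment at 37 C, detection reagent was added for 30 min at room temperature before luminescence reading.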

[11] = qHTS assay to identify small molecule antagonists of the estrogen related receptor (ERR) signaling pathway from Tox21 library - cell viability counter screen (AID 1224834); conditions: ERR reporter cells viability, CellTiter-Fluor, 17.5 h; at 92.4 µM (top of the series); note: % is set by controls: 0 for no effect and ±100 for the full control effect; nearly all actives have a fitted effect of over 30% in size
Method in brief: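 CellTiter-Fluor fluorescence measured; ERR cells; 17.5 h compound incubation at 37 C; 30 min reagent step.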

[12] = molecular target: Luciferin 4-monooxygenase (Photinus pyralis) (UniProt P08659); test: qHTS assay to identify small molecule inhibitors of firefly luciferase (AID 1224835); note: % is set by controls: 0 for no effect and ±100 for the full control effect; nearly all actives have a fitted effect of over 25% in size; conditions: purified P. pyralis luciferase, luminescence inhibition; series mostly up to 115 µM
Method in brief: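 Quantitative HTS format; KM concentrations of both substrates. Purified P. pyralis FLuc activity quantified from luminescence images.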

[13] = molecular target: Nuclear receptor subfamily 1 group I member 3 (Homo sapiens) (UniProt Q14994); test: qHTS assay to identify small molecule antagonists of the constitutive androstane receptor (CAR) signaling pathway (AID 1224838); conditions: HepG2-CYP2B6-hCAR luciferase, CITCO-stimulated, 24 h;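 note: HepG2 cells stably expressing hCAR with CYP2B6 luciferase reporter stimulated by CITCO; % is set by controls: 0 for no effect and ±100 for the full control effect; nearly all actives have a fitted effect of over 40% in size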
[14] = molecular target: Nuclear receptor subfamily 1 group I member 3 (Homo sapiens) (UniProt Q14994); test: qHTS assay to identify small molecule agonists of the constitutive androstane receptor (CAR) signaling pathway (AID 1224839); conditions: HepG2 hCAR CYP2B6-luciferase, agonist mode, 24 h; series mostly up to 92.4 µM;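 note: HepG2 cells stably carrying human CAR and a CYP2B6 luciferase reporter; % is set by controls: 0 for no effect and ±100 for the full control effect; nearly all actives have a fitted effect of over 15% in size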

Cc1ccc([N+](=O)[O-])cc1[N+](=O)[O-]
inactive: viability change, negative = cytotoxic ([1]; at 61 µM (top of the series)) 19.8% and -8.07% | activity, negative = cytotoxic ([2]; at 61 µM (top of the series)) 5.9% and 11% | activation ([3]; at 61 µM (top of the series)) -7.29% and -2.1% | activity change, negative = cytotoxicity ([4]; at 61 µM (top of the series)) -9.96% and -21.3% | activity change, negative = inhibition [5] -17.4% and 1.88% | viability change, negative = cytotoxic [6] 4.93% and 16.2% | activation ([7]; at 76.8 µM (top of the series)) -2.54% and -5.26% | activity, negative = inhibition ([9]; at 92.4 µM (top of the series)) 0.562% and -13% | activation ([10]; at 73.3 µM (top of the series)) -1.63% and -0.0921% | viability change, negative = cytotoxic [11] 3.98% and 6.27% | Potency [12] | activity, negative = inhibition ([13]; at 92.4 µM (top of the series)) 27% and 24.4% | Potency [14]
inactive and 19.5 µM (active): Potency [8]

N=C(N)N[N+](=O)[O-]
inactive: viability change, negative = cytotoxic ([1]; at 78.8 µM (top of the series)) 14% | activity, negative = cytotoxic ([2]; at 78.8 µM (top of the series)) -3.6% | activation ([3]; at 78.8 µM (top of the series)) -2.35% | activity change, negative = cytotoxicity ([4]; at 78.8 µM (top of the series)) 15.6% | activity change, negative = inhibition [5] -20.9% | viability change, negative = cytotoxic [6] -5.23% | activation ([7]; at 76.8 µM (top of the series)) -0.686% | activity, negative = inhibition ([9]; at 92.4 µM (top of the series)) 45.4% | activation ([10]; at 94.8 µM (top of the series)) -0.426% | viability change, negative = cytotoxic [11] 3.1% | Potency [12] | activity, negative = inhibition ([13]; at 92.4 µM (top of the series)) -6.42% | Potency [14]

COc1ccc([N+](=O)[O-])cc1[N+](=O)[O-]
inactive: viability change, negative = cytotoxic ([1]; at 61 µM (top of the series)) 11.9% | activity, negative = cytotoxic ([2]; at 61 µM (top of the series)) 1.16% | activation ([3]; at 61 µM (top of the series)) -0.0138% | activity change, negative = cytotoxicity ([4]; at 61 µM (top of the series)) 5.97% | activity change, negative = inhibition [5] -1.21% | viability change, negative = cytotoxic [6] 1.11% | activation ([7]; at 76.8 µM (top of the series)) -3.24% | Potency [8] | activity, negative = inhibition ([9]; at 92.4 µM (top of the series)) -6.53% | activation ([10]; at 73.3 µM (top of the series)) -0.114% | viability change, negative = cytotoxic [11] 0.326% | Potency [12] | activity, negative = inhibition ([13]; at 92.4 µM (top of the series)) 28.3% | Potency [14]

C/C1=C2N=C(/C=C3N=C(/C(C)=C4\[N-][C@@](C)([C@@H]5N=C1[C@](C)(CCC(=O)NC[C@@H](C)OP(=O)([O-])O[C@H]1[C@@H](O)[C@@H](n6cnc7cc(C)c(C)cc76)O[C@@H]1CO)[C@H]5CC(N)=O)[C@@](C)(CC(N)=O)[C@@H]4CCC(N)=O)[C@@](C)(CC(N)=O)[C@@H]\3CCC(N)=O)C(C)(C)[C@@H]/2CCC(N)=O.[C-]#N.[Co+3]
inactive: viability change, negative = cytotoxic ([1]; at 61 µM (top of the series)) 6.16% | activity, negative = cytotoxic ([2]; at 61 µM (top of the series)) 6.46% | activation ([3]; at 61 µM (top of the series)) -0.105% | viability change, negative = cytotoxic [6] 1.75% [at 35.3 µM] | activation ([7]; at 35.3 µM (top of the series)) -0.628% | Potency [8] | activity, negative = inhibition ([9]; at 42.5 µM (top of the series)) -7.58% | Potency [12] | activity, negative = inhibition ([13]; at 42.5 µM (top of the series)) -7.87% | Potency [14]

CCOP(=O)(CC)OCC
inactive: viability change, negative = cytotoxic ([1]; at 61 µM (top of the series)) 11.1% | activity, negative = cytotoxic ([2]; at 61 µM (top of the series)) 7.43% | activation ([3]; at 61 µM (top of the series)) -0.451% | activity change, negative = cytotoxicity ([4]; at 61 µM (top of the series)) -6.28% | activity change, negative = inhibition [5] -4.92% | viability change, negative = cytotoxic [6] 16.3% | activation ([7]; at 76.8 µM (top of the series)) -4.09% | Potency [8] | activity, negative = inhibition ([9]; at 92.4 µM (top of the series)) 4.64% | activation ([10]; at 73.3 µM (top of the series)) -0.709% | viability change, negative = cytotoxic [11] 1.31% | Potency [12]
